From PMC7311425, “DREAM-in-CDM Approach and Identification of a New Generation of Anti-inflammatory Drugs Targeting mPGES-1” (Scientific Reports, 2020) come the findings set out here.

Each structure is given as a SMILES string.

For this test, the target named is T1, human mPGES-1 (Homo sapiens, UniProt O14684).
T1 construct: made in house
T1 sequence (O14684 1-152): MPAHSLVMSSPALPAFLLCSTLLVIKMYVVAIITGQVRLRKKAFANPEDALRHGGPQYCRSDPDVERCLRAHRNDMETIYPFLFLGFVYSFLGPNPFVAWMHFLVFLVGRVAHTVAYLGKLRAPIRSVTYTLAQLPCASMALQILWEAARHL
As to the kind of experiment: in vitro inhibitory activity against human mPGES-1 (PGE2 ELISA assay). It is filed as biochemical. Conditions: IC50 (µM). The procedure: The above computational predictions were followed by in vitro activity assays for their actual inhibitory activity against human mPGES-1 using an ELISA assay described in our previous reports[32]–[34]. […] Specifically, 15 FDA-approved drugs (see Fig. S1 of the Supporting Information for the molecular structures) were assayed for their inhibitory activity against human mPGES-1.
The protocol for the protein preparation and in vitro activity assays were the same as described previously[51]–[54]. The enzyme activity assays were performed on ice in 1.5 ml microfuge tubes by using the expressed human or mouse mPGES-1. The reaction mixture contained: 0.2 M Na2HPO4/NaH2PO4, pH 7.2, 10 µL; 0.1 M GSH, 2.5 µL; diluted microsomal enzyme (80 µg/mL), 1 µL; PGH2 (0.31 mM in DMF), 5 µL; 1 µL inhibitor; and H2O in a final reaction volume of 100 µL. PGH2 was stored in dry ice and used to initiate the reaction. Compounds were incubated with the enzyme for 15 min at room temperature before the addition of cold PGH2 ([…]) to initiate the enzyme reaction. After 30 s, 10 µL of SnCl2 (40 mg/mL) in ethanol was added to stop the reaction. […] The reaction mixture was placed on ice until PGE2 production was determined by the PGE2 enzyme immunoassay as described earlier. IC50 values of the inhibitors were calculated by using the GraphPad Prism 7.
For orientation: An ELISA detects its analyte on a solid surface through an enzyme-linked reagent.

For `C[C@]12C=CC(=O)C=C1CC[C@@H]1[C@@H]2[C@@H](O)C[C@@]2(C)[C@H]1CC[C@]2(O)C(=O)CO` [Prednisolone], half-maximal inhibition (IC50) required 12.6 ± 1.6 µM.

Broadly, the IC50 is the midpoint of a concentration-inhibition curve.
